For 2 compounds, EC50 and IC50 results are on record in patent publication US11524940B1, “Inhibitors of cysteine proteases and methods of use thereof” (priority 2020, dated 2022).

Sequences of proteins named here, by UniProt entry; tags and fusion partners are left off. Residues count along the entry.
UniProt P0C6X1, 2966-3267 limits assumed: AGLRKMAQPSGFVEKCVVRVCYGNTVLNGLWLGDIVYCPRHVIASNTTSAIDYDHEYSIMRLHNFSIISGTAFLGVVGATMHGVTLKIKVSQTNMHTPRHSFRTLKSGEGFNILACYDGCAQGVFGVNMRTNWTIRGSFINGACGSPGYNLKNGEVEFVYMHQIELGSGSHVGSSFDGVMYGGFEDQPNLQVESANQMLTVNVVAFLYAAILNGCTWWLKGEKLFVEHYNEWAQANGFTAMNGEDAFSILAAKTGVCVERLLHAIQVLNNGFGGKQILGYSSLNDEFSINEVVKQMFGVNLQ

Molecules are shown by their SMILES. Some results are limits rather than exact numbers.

One assay addresses 229E Mpro (Human coronavirus 229E (HCoV-229E), UniProt P0C6X1). As to the kind of experiment: 229E Mpro activity. The class given is biochemical.
The target of the next assay is SARS-CoV2 Mpro (Severe acute respiratory syndrome coronavirus 2 (2019-nCoV) (SARS-CoV-2), UniProt P0DTD1). As to the kind of experiment: COVID-19 (SARS-CoV2) Mpro enzymatic assay. It counts as biochemical.

The EC50 is the concentration giving half of the maximal effect. A high value points to a less potent agent. With `N#C[C@H](C[C@@H]1CCNC1=O)NC(=O)[C@H](CC1CC1)NC(=O)c1nc2ccncc2[nH]1` [Compound 129, N-[(1S)-2-[[(1S)-1-cyano-2-[(3S)-2-oxopyrrolidin-3-yl]ethyl]amino]-1-(cyclopropylmethyl)-2-oxo-ethyl]-3H-imidazo[4,5-c]pyridine-2-carboxamide], the EC50 on 229E Mpro lay in the range of 2000 to 10000 nM.
The term IC50 denotes the concentration needed to halve the response being measured. A lower IC50 goes with greater potency. As to `COc1cccc2nc(C(=O)N[C@@H](CC3CC3)C(=O)N[C@H](C#N)C[C@@H]3CCNC3=O)[nH]c12` [Compound 145, N-[(1S)-2-[[(1S)-1-cyano-2-[(3S)-2-oxopyrrolidin-3-yl]ethyl]amino]-1-(cyclopropylmethyl)-2-oxo-ethyl]-7-methoxy-1H-benzimidazole-2-carboxamide], the IC50 on SARS-CoV2 Mpro was less than 2000 nM.
